The inhibition is how much of the control response was suppressed. Higher therefore signals a strong effect.

Protein sequences, listed by entry. Tags and fused reporters are not part of them.
UniProt P21728, whole entry: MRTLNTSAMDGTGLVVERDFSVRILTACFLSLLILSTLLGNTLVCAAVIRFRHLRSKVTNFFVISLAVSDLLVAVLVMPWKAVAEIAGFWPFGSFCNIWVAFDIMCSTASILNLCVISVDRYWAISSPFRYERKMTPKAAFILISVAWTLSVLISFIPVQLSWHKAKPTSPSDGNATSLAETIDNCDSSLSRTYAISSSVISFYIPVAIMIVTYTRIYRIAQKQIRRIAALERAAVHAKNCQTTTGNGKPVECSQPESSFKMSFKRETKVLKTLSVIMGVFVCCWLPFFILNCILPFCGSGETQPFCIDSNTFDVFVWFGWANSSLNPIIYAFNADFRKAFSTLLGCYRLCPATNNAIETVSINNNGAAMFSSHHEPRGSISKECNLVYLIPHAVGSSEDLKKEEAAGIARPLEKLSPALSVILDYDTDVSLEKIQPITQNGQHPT
UniProt P35462, whole entry: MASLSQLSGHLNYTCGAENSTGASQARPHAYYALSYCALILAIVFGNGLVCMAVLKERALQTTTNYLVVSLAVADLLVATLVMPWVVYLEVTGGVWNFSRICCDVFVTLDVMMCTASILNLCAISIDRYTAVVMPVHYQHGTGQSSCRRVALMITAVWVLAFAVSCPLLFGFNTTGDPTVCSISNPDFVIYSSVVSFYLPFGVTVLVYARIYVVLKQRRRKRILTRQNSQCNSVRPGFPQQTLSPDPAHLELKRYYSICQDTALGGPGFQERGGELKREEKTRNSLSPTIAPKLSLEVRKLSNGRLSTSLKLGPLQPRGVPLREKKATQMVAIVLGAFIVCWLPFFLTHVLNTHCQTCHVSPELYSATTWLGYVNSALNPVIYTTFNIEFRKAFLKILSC

The values that follow come from ChEMBL document CHEMBL3877260, “Synthesis and evaluation of C9 alkoxy analogues of (-)-stepholidine as dopamine receptor ligands” (Eur J Med Chem, 2017).

One assay addresses D(1A) dopamine receptor (Homo sapiens, UniProt P21728). Nature of the assay: Displacement of [3H]SCH23390 from human D1 receptor expressed in HEKT cell membranes at 10 uM after 90 mins by microbeta scintillation counting method relative to control. On the technique in general: In a radioligand displacement assay an active substance lowers the binding of a labelled ligand.
The next assay concerns the target D(3) dopamine receptor (Homo sapiens, UniProt P35462). In words: Displacement of [3H]N-methylspiperone from human D3 receptor expressed in HEKT cell membranes at 10 uM after 90 mins by microbeta scintillation counting method relative to control.

Take `CCC(C)Oc1c(O)ccc2c1CN1CCc3cc(OC)c(O)cc3[C@@H]1C2` (some centres not stated): the inhibition on D(1A) dopamine receptor and at D(3) dopamine receptor was over 50% throughout.
